Assay results taken from paper PMC9919591, “New Triazine Derivatives as Serotonin 5-HT6 Receptor Ligands” (Molecules, 2023).

The chains behind the UniProt entries cited, without tags or fusion partners.
UniProt P50406, whole entry: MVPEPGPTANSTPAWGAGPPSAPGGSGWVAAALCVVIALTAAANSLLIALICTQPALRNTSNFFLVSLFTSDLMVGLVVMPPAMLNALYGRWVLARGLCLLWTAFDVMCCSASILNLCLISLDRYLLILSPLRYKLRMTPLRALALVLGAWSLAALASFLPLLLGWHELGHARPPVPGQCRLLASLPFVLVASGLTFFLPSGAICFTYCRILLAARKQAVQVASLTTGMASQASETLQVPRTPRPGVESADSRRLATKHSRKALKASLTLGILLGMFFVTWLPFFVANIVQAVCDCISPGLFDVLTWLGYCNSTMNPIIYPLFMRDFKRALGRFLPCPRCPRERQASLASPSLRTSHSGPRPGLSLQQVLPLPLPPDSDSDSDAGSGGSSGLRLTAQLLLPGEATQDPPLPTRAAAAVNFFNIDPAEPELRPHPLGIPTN
UniProt P34969, whole entry: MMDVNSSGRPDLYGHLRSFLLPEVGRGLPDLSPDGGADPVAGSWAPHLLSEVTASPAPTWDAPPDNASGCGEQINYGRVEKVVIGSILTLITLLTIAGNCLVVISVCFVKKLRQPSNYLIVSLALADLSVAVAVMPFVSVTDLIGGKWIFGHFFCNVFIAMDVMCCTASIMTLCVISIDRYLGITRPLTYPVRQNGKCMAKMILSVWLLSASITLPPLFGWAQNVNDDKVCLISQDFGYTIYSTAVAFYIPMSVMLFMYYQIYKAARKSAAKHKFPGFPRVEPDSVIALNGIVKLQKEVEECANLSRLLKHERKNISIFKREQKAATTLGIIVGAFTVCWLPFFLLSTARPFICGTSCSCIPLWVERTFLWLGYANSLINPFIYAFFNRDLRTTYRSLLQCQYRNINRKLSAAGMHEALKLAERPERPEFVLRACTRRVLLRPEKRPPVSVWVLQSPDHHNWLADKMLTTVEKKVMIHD

How the values were obtained:
[1] = target: human 5-HT6R (Homo sapiens, UniProt P50406); assay: Radioligand binding assay, 5-HT6R ([3H]-LSD)
[2] = target: human 5-HT7R (Homo sapiens, UniProt P34969); assay: Radioligand binding assay, 5-HT7R ([3H]-5-CT); details: read-out: Ki 5-HT7R, HEK293 cells stably expressing human 5-HT7R
Procedure: Affinity for serotonin 5-HT2A, 5-HT7 and dopamine D2 receptors (D2R) as protein off-targets was evaluated in the radioligand binding assays. In CHO-K1 cells, it was stably expressed human 5-HT2AR, whereas human 5-HT7R and D2R were stably expressed in HEK293 cells. […] A particularly weak affinity towards this receptor was shown through compounds of series 1 (compounds 1–7) and series 2 (compounds 8–13). […]. Radioligand binding assays were used to determine the affinity of the synthesized compounds for human serotonin 5-HT6R, 5-HT2AR, 5-HT7R and dopamine D2R, which were stably expressed in HEK293 cells or CHOk1 cells (5-HT2AR). This was done as described previously.

CN1CCN(c2nc(N)nc(COc3ccccc3C(C)(C)C)n2)CC1 [Compound 3, 4-((2-(tert-Butyl)phenoxy)metyl)-6-(4-methylpiperazin-1-yl)-1,3,5-triazin-2-amine]
decrease in affinity for 5-HT6R compared to the free base 3 ([1]; ratio of Ki values vs 3 (Ki = 13 nM)): 3 fold | Ki ([1]; read-out: Ki 5-HT6R, [3H]-LSD, HEK293 cells stably expressing human 5-HT6R, average of at least two independent experiments): 0.035 µM | Ki [2]: 15.5 µM
